Results on 1 molecule are retold here after paper PMC3795262 (2013).

In assay [1] the target is T1, Recombinant human heavy chain 1 of inter-α-inhibitor (human, UniProt P19827 35-672).
T1 chain: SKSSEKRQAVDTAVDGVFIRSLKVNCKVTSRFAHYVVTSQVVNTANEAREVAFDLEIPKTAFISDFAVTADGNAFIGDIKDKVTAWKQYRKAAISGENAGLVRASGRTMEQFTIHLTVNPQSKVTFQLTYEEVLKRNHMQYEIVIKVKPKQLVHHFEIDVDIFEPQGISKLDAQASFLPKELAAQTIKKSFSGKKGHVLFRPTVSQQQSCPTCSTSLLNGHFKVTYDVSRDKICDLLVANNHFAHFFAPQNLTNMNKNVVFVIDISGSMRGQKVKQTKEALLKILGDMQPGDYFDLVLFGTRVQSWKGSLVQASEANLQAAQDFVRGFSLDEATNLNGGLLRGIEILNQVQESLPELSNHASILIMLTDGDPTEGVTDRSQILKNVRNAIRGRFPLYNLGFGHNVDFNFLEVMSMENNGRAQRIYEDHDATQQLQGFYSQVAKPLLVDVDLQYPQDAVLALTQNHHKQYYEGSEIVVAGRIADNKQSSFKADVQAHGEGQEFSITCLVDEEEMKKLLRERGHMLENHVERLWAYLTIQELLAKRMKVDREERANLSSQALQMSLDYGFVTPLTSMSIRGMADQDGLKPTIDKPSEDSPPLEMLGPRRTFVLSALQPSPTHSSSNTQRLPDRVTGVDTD
Nature of the assay: SPR; 10 mM EDTA. (SPR reads the build-up and loss of mass on a sensor chip optically.)

For assay [2], the target named is T2, Recombinant human heavy chain 2 of inter-α-inhibitor (human, UniProt P19823 55-702).
T2 chain: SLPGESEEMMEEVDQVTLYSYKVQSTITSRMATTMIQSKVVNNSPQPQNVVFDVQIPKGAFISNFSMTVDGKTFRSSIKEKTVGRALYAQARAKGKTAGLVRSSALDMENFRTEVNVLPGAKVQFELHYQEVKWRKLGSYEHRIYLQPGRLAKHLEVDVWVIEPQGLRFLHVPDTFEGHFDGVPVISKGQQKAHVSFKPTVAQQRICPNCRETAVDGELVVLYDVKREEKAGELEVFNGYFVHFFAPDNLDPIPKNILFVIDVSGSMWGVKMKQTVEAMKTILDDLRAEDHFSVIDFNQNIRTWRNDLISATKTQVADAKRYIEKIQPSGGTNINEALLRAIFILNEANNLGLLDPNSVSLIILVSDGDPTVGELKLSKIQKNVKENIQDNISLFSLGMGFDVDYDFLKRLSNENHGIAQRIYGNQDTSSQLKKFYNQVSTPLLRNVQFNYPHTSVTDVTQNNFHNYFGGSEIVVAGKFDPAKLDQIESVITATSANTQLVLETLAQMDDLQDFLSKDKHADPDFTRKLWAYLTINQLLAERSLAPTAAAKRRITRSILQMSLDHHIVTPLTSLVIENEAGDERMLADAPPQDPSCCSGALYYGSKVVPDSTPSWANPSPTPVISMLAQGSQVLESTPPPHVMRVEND
Briefly: SPR; 10 mM EDTA.

Assay [3] addresses T3, Recombinant human heavy chain 3 (human, UniProt Q06033 35-651).
T3 chain: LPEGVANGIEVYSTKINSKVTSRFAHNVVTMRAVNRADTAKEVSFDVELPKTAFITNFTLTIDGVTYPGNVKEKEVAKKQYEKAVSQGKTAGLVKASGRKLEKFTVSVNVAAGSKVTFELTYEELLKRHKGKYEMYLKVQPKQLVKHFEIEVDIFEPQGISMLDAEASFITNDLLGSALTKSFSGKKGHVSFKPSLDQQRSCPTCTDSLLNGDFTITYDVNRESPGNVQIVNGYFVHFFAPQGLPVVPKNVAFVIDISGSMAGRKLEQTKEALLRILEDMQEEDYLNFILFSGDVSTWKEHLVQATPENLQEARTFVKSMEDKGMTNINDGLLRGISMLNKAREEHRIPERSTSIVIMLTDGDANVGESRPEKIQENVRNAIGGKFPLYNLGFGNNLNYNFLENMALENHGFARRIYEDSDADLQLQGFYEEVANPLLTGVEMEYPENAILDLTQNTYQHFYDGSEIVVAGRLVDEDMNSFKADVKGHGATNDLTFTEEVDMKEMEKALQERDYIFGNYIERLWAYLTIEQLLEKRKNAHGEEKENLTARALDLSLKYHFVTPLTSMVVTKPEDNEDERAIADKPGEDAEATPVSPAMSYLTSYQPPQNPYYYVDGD
Nature of the assay: SPR; 10 mM EDTA.

The target of assay [4] is T1, Recombinant human heavy chain 1 of …. Briefly: SPR; 1 mM MgCl2 and 1 mM CaCl2.
Assay [5] deals with T2, Recombinant human heavy chain 2 of …. Nature of the assay: SPR; 1 mM MgCl2 and 1 mM CaCl2.
The target in assay [6] is T3, Recombinant human heavy chain 3. Briefly: SPR; 1 mM MgCl2 and 1 mM CaCl2.

Usually Kd stands for a measure of binding affinity in units of concentration.

B1: Full-length recombinant human TSG-6 (secreted product of tumor necrosis factor-stimulated gene-6) (natural protein)
chain: WGFKDGIFHNSIWLERAAGVYHREARSGKYKLTYAEAKAVCEFEGGHLATYKQLEAARKIGFHVCAAGWMAKGRVGYPIVKPGPNCGFGKTGIIDYGIRLNRSERWDAYCYNPHAKECGGVFTDPKQIFKSPGFPNEYEDNQICYWHIRLKYGQRIHLSFLDFDLEDDPGCLADYVEIYDSYDDVHGFVGRYCGDELPDDIISTGNVMTLKFLSDASVTAGGFQIKYVAMDPVSKSSQGKNTSTTSTGNKNFLAGRFSHL
Regarding B1, the Kd in assay [1] stood at 7.4 nM; in assay [2], 8.9 nM; in assay [3] it was 8.3 nM; in assay [4] it was 6.3 nM; in assay [5] it was 6.5 nM; in assay [6], 6.5 nM.
